1 substance from PMC3880566 can be followed below.

The target of this assay is GAL4 DNA-binding domain fusion of human AR-481-919 (pBDGAL4CAM-481–919) (human). Put plainly: two-hybrid.

On to “GAL4 activation domain fusion of CKβBP2/CRIF1 (HeLa cDNA clone in pGAD-GH) (from UniProt Q8TAE8 7-222) (natural protein)”, for which the fold over the increase in β-galactosidase activity without CKβBP2/CRIF1 amounted to 4 fold and the fold β-galactosidase activity over background (with DHT) amounted to 8 fold.
